These are literature values, as cited in article PMC7027746 (Clinical Pharmacology in Drug Development, 2019).

This series concerns crizotinib‐naive patients with ALK‐positive NSCLC. The following applies: phase 3 trial; cited from earlier work.

Consider `C[C@@H](Oc1cc(-c2cnn(C3CCNCC3)c2)cnc1N)c1c(Cl)ccc(F)c1Cl` [crizotinib], for which the “12‐month progression‐free survival” value was 43%.
